Amino acid sequences for entries named in this document (tags omitted). A change or cut given only in a name is not applied to a line headed by its entry.
UniProt P22303: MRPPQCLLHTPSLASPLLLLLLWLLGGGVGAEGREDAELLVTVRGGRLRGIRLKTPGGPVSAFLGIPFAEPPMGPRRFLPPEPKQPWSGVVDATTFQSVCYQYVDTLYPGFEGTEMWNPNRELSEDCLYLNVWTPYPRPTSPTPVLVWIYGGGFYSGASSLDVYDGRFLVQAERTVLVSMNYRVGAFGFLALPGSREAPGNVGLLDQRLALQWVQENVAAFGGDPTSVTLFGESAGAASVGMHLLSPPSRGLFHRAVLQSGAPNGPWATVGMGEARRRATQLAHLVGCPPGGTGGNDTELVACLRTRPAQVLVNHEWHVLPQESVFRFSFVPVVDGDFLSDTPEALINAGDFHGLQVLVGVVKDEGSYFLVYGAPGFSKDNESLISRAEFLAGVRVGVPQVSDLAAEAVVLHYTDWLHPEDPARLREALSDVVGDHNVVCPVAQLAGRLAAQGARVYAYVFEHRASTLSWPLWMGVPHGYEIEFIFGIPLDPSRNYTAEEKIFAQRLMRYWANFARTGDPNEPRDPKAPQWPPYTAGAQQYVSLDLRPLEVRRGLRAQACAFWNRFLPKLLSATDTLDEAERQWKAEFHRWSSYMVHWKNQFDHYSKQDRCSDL

According to ChEMBL document CHEMBL1240490, “Novel carbamates as orally active acetylcholinesterase inhibitors found to improve scopolamine-induced cognition impairment: pharmacophore-based virtual screening, synthesis, and pharmacology” (J Med Chem, 2010):

Key:
Acetylcholinesterase [1] = target: T1, Acetylcholinesterase (Homo sapiens, UniProt P22303)
Acetylcholinesterase [2] = target: T1, Acetylcholinesterase; remark: listed apart in the source

Row | Structure (SMILES) | logIC50 (Acetylcholinesterase [1]) | IC50 (Acetylcholinesterase [2])
1 | CN1CC[C@@]2(C)c3cc(OC(=O)Nc4ccccc4)ccc3N(C)[C@@H]12 | 1.34 | –
2 | CC(C)c1ccc(NC(=O)Oc2ccc3c(c2)[C@]2(C)CCN(C)[C@@H]2N3C)cc1 [4-ISOPROPYLPHENSERINE] | 2.04 | 0.11 µM
